{"source": "PubChem BioAssay AID2825", "about": "(Sanford-Burnham Center for Chemical Genomics, 2010)", "note": "The entries are a selection whose mix differs from that of the whole data set. Calls of active or inactive are those of the source.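 How the source made its calls: active means inhibition of 50% or more; inactive means inhibition below 50%.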"}
{"assay": "blockers of yeast NLRP3/ASC/caspase-1 reporter – luminescence, uHTS, primary screen (AID 2825);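 further: plate controls were induced DMSO wells for no effect and uninduced yeast grown without galactose for full effect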", "conditions": "Yeast reconstituted NLRP3/ASC/caspase-1, beta-gal luminescence, 24 h; at 10 µM; stronger effect = higher value"}
{"smiles": "CC1=NCCc2c1[nH]c1ccccc21.O=[N+]([O-])c1cc([N+](=O)[O-])c(O)c([N+](=O)[O-])c1", "inhibition": "inactive: 10.2%"}
